Assay results: patent US6583175B2, “Alkylxanthates and use of alkylxanthates in the integrated pest management” (Council of Scientific & Industrial Research, priority 2001, dated 2003)
Read-outs that look alike come from different tables or passages of the source.

Assays:
[1] = tested on: Brine shrimp, Artemia salina; assay: Brine shrimp bioassay (toxic activity); conditions: Artemia salina nauplii, 24 hours
Helicoverpa armigera = conditions: topical

Question: Which “LC50 ± S.E.” value [1] does the source give for Methylene Bis(n-butylxanthate) here?
Answer: 34.65 ± 3.91 µg/mL

Question: Which results are given for “O,O-diethyl thiophospate phenethylxanthate”?
Answer: Adult emergence: Abnormal adults (Helicoverpa armigera; 25 μg/Insect): 7; Adult emergence: Intermediates (Helicoverpa armigera; 25 μg/Insect): 5; Adult emergence: Non emergence (Helicoverpa armigera; 25 μg/Insect): 9; Adult emergence: Normal adults (Helicoverpa armigera; 25 μg/Insect): 15; Larval mortality (%) (Helicoverpa armigera; 25 μg/Insect): 47%; Pupal Formation: Abnormal pupa (Helicoverpa armigera; 25 μg/Insect): 13; Pupal Formation: Normal pupa (Helicoverpa armigera; 25 μg/Insect): 23; Pupal Formation: Pupal Mortality (Helicoverpa armigera; 25 μg/Insect): 17; Adult emergence: Intermediates (Helicoverpa armigera; 35 μg/Insect): 4; Adult emergence: Non emergence (Helicoverpa armigera; 35 μg/Insect): 8; Adult emergence: Normal adults (Helicoverpa armigera; 35 μg/Insect): 9; Larval mortality (%) (Helicoverpa armigera; 35 μg/Insect): 62%; Pupal Formation: Abnormal pupa (Helicoverpa armigera; 35 μg/Insect): 15; Pupal Formation: Normal pupa (Helicoverpa armigera; 35 μg/Insect): 12; Pupal Formation: Pupal Mortality (Helicoverpa armigera; 35 μg/Insect): 11; Adult emergence: Abnormal adults (Helicoverpa armigera; 50 μg/Insect): 7; Adult emergence: Intermediates (Helicoverpa armigera; 50 μg/Insect): 2; Adult emergence: Non emergence (Helicoverpa armigera; 50 μg/Insect): 2; Adult emergence: Normal adults (Helicoverpa armigera; 50 μg/Insect): 5; Larval mortality (%) (Helicoverpa armigera; 50 μg/Insect): 71%; Pupal Formation: Abnormal pupa (Helicoverpa armigera; 50 μg/Insect): 11; Pupal Formation: Normal pupa (Helicoverpa armigera; 50 μg/Insect): 5; Pupal Formation: Pupal Mortality (Helicoverpa armigera; 50 μg/Insect): 9; Adult emergence: Abnormal adults (Helicoverpa armigera; 75 μg/Insect): 1; Adult emergence: Intermediates (Helicoverpa armigera; 75 μg/Insect): 0; Adult emergence: Non emergence (Helicoverpa armigera; 75 μg/Insect): 3; Adult emergence: Normal adults (Helicoverpa armigera; 75 μg/Insect): 4; Larval mortality (%) (Helicoverpa armigera; 75 μg/Insect): 85%; Pupal Formation: Abnormal pupa (Helicoverpa armigera; 75 μg/Insect): 5; Pupal Formation: Normal pupa (Helicoverpa armigera; 75 μg/Insect): 3; Pupal Formation: Pupal Mortality (Helicoverpa armigera; 75 μg/Insect): 7; Adult emergence: Abnormal adults (Helicoverpa armigera; 100 μg/Insect): 1; Adult emergence: Intermediates (Helicoverpa armigera; 100 μg/Insect): 0; Adult emergence: Non emergence (Helicoverpa armigera; 100 μg/Insect): 5; Adult emergence: Normal adults (Helicoverpa armigera; 100 μg/Insect): 0; Larval mortality (%) (Helicoverpa armigera; 100 μg/Insect): 92%; Pupal Formation: Abnormal pupa (Helicoverpa armigera; 100 μg/Insect): 6; Pupal Formation: Normal pupa (Helicoverpa armigera; 100 μg/Insect): 0; Pupal Formation: Pupal Mortality (Helicoverpa armigera; 100 μg/Insect): 3
